According to US6863888 (University of California, dated 2005):

Molecular target: T1, c-Jun N-terminal protein kinase (JNK), 46 kD form, endogenous kinase from cell extracts (human, UniProt P45983-2)
T1 construct: Not a purified recombinant protein: kinase activity captured from extracts of Jurkat, HeLa (human), FR3T3 (rat), F9 (mouse), QT6 (quail) and other cells; the tie to the endogenous 46 kD activity is 'homologous or identical'; also called JNK1; 46 kD JNK
Experiment: solid-phase kinase assay, Jurkat whole cell extracts on GST-GSH-agarose beads

B1: GST (glutathione-S-transferase alone) (other, UniProt P08515 1-218, looked up)
chain: MSPILGYWKIKGLVQPTRLLLEYLEEKYEEHLYERDEGDKWRNKKFELGLEFPNLPYYIDGDVKLTQSMAIIRYIADKHNMLGGCPKERAEISMLEGAVLDIRYGVSRIAYSKDFETLKVDFLSKLPEMLKMFEDRLCHKTYLNGDHVTHPDFMLYDALDVVLYMDPMCLDAFPKLVCFKKRIEAIPQIDKYLKSSKYIAWPLQGWQATFGGGDHPPK
notes: Control protein on GSH-agarose beads; also called GST moiety; GST-GSH-agarose beads
binding result: no binding
